{
  "sequences": {"note": "By UniProt entry, the sequences of proteins in these tests, tags left out. Residues count along the entry.", "UniProt O42275, 24-633": "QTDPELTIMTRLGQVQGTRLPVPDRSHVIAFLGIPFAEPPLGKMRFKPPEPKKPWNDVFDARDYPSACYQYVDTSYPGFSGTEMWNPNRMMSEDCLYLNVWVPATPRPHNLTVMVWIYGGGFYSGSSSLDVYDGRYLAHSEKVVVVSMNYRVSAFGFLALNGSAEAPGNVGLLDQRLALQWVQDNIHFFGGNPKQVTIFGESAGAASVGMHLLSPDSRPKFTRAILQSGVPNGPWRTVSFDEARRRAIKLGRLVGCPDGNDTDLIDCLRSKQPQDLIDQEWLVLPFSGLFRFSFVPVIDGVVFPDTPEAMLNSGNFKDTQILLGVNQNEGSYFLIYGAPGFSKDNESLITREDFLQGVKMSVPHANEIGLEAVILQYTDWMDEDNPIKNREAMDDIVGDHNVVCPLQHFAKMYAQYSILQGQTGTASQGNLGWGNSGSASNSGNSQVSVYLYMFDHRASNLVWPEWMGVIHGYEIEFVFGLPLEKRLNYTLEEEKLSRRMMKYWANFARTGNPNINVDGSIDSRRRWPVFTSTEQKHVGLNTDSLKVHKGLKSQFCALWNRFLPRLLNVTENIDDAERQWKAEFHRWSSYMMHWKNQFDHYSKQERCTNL"},
  "source": "paper PMC7436049",
  "about": "“Combining In Silico and In Vitro Studies to Evaluate the Acetylcholinesterase Inhibitory Profile of Different Accessions and the Biomarker Triterpenes of Centella asiatica” (Molecules, 2020)",
  "target": "T1, acetylcholinesterase from electrophorus electricus (Electrophorus electricus, UniProt O42275)",
  "T1 construct": "purchased Sigma–Aldrich (St. Louis, MO, USA)",
  "type": "biochemical",
  "method": "All solvents were HPLC grade, purchased from Merck (Darmstadt, Germany). […] Sodium monobasic […] were purchased from Merck (Darmstadt, Germany), and acetylcholinesterase from electrophorus electricus, 5,5′-Dithiobis (2-nitrobenzoic acid), and […] were obtained from Sigma–Aldrich (St. Louis, MO, USA).\nThe AChE inhibitory activity was evaluated using Ellman’s method, as reported previously. Each sample (20 µL of 5 mg/mL in DMSO) was dispensed in triplicate into a 96-well microplate and mixed with 190 µL of DTNB, 20 µL of substrate (ATCI). The control wells contained 2% of DMSO instead of the extract. The enzymatic activity was measured at 412 nm every 30 s intervals for 3 min. The buffer solution was used as negative control.\nThe percentage inhibition (%I) of each sample and the positive control (physostigmine) was calculated using the formula:%I: [(Ac − As)/(Ac)] × 100(1) where (%I): Percentage inhibition • Ac: Absorbance of negative control • As: Absorbance of sample\nThe experiments were expressed as the mean ± standard error of the mean (SEM) in triplicates.",
  "data": [
    {"smiles": "CNC(=O)Oc1ccc2c(c1)[C@]1(C)CCN(C)[C@@H]1N2C", "note": "[Eserine, eserine, reference compound]", "values": [
      {"measurement": "AChE inhibitory activity, IC50 Values", "value": "0.05 ± 0.12", "unit": "µg/mL"}
    ]}
  ]
}
